DT40 TDP1 no CPT = qHTS for Inhibitors of human tyrosyl-DNA phosphodiesterase 1 (TDP1): qHTS in cells in absence of CPT | DT40 Tdp1-/- hTDP1 cells, no CPT, ATP luminescence, 48 h | Potency, µM (top dose mostly 46.2 µM), actives largely listed as inhibitors | 15% of 420,000 active | AID 686978, 2013; further: nearly all actives have a fitted effect of over 55% in size
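Compound effects on proliferation are scored in DT40 Tdp1-/-;hTDP1 cells in the absence of CPT. ATP levels (CellTiter-Glo luminescence) are recorded after a ≥48 hr, 37 °C incubation.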
DT40 TDP1 CPT = growth inhibition of DT40 Tdp1-/-;hTDP1 cells with camptothecin (screen for TDP1 inhibitors) | chicken DT40 Tdp1-/-;hTDP1 cells + 20 nM CPT, ATP luminescence, 48 h | Potency, µM (highest dose often 46.2 µM), most hits filed as inhibitors | 12% of 420,000 active | AID 686979; further: nearly all actives have a fitted effect of over 55% in size
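Cell growth measured by CellTiter-Glo luminescence after a minimum 48 h, 37 C compound exposure with 20 nM CPT in Tdp1-knockout DT40 cells stably expressing hTDP1, seeded 400/well; qHTS titration format.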
uPA generation = blocks generation of uPA at the cell surface; 0.31% of 330,000 active; Potency, µM (doses to about 38.3 µM), hits mostly inhibitors; cell surface uPA generation assay, qHTS; active means well fitted inhibition curve with a large enough effect; inconclusive means small, poorly fitted or top-dose-only effect; inactive means no such curve, though single readings can be large or run the other way; tested in mouse RAW 264.7 cells; further: nearly all actives have a fitted effect of over 55% in size
TDP1 block = inhibitors of human tyrosyl-DNA phosphodiesterase TDP1. Q9NUW8. recombinant TDP1, AlphaScreen DNA substrate cleavage. Potency, µM (series often up to 130 µM), hits mostly inhibitors. 0.28% of 350,000 active. AID 485290; further: nearly all actives have a fitted effect of over 40% in size
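Signal: AlphaScreen proximity between streptavidin donor and anti-FITC acceptor beads on intact substrate. Reaction: Tdp1 1 nM, substrate 15 nM final, 5 min RT after 15 min compound preincubation.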
miR-21 reporter = miR-21 reporter, rising signal | AID 2288 | HeLa miR-21 FLuc reporter, luciferase, 48 h | 340,000 tested, under 10 active | Potency, µM (doses to about 38.3 µM); active = well fitted rising curve with a large enough effect; inconclusive = small, poorly fitted or top-dose-only effect; inactive = no such curve, though single readings can be large or run the other way;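 note: miR-21 action dims this reporter so a rising signal means less miR-21 action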
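Using DMEM plus 10% FBS, HeLa miR-21-FLuc cells are incubated with test compounds (final up to about 40uM) for 48 hours; firefly luciferase signal is then imaged following reagent-mediated lysis.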
A number is an active result; – = inactive; ? = inconclusive; · = no result given. Only some compounds are listed: those with a hit (about 16% of all), similar ones and a draw of the others. Unless noted, the call rests on the fitted dose curve; in most records, active means well fitted curve in the direction sought with a large enough effect; inconclusive means small, poorly fitted or top-dose-only effect, or another doubt; inactive means no such curve, though single readings can be large; an effect the other way counts as inactive or inconclusive.

SMILES	DT40 TDP1 no CPT	DT40 TDP1 CPT	uPA generation	TDP1 block	miR-21 reporter
O=c1nc2ccccc2c2n1CC(CN1CCN(c3ccccc3F)CC1)N2 (configuration not stated)	13µM	?	–	–	–
Cc1cnc2c(N)cc(C)c(C)c2c1	?	–	·	·	·
CCCCOc1ccc(CNC(=O)C2CCCN(c3nnc(-n4c(C)ccc4C)s3)C2)cc1 (configuration not stated)	?	?	·	–	–
CCc1ccc(NC(=O)C2CCN(c3nnc(-n4c(C)ccc4C)s3)CC2)cc1	23µM	16µM	·	–	–
CCOc1ccc(NC(=O)C2CCCN(c3nnc(-n4c(C)ccc4C)s3)C2)cc1 (configuration not stated)	?	?	·	–	–
Cc1cc(Cl)ccc1NC(=O)C1CCN(c2nnc(-n3c(C)ccc3C)s2)CC1	21µM	?	·	–	–
CCc1ccccc1NC(=O)C1CCCN(c2nnc(-n3c(C)ccc3C)s2)C1 (configuration not stated)	21µM	21µM	·	–	–
Cc1c(Cl)cccc1NC(=O)C1CCCN(c2nnc(-n3c(C)ccc3C)s2)C1 (configuration not stated)	16µM	?	·	–	–
COc1ccc(CNC(=O)C(NC(C)=O)C(=O)Nc2ccc(OC)cc2)cc1 (configuration not stated)	–	–	–	–	–
COc1ccc(CN(C)CC(=O)NC(C)c2ccccc2)cc1OC (configuration not stated)	?	–	–	–	–
COc1ccc(N2C(=O)CC(Nc3ccc(N4CCOCC4)cc3)C2=O)c(OC)c1 (configuration not stated)	–	–	–	–	–
O=C(NC1CCC(O)CC1)c1ccc(Br)o1 (configuration not stated)	–	–	–	–	·
CC(NC(=O)C1CCN(c2nnc(-n3cccc3)s2)CC1)C12CC3CC(CC(C3)C1)C2 (configuration not stated)	15µM	16µM	–	–	–
CC(CCc1ccccc1)NC(=O)C1CCCN(c2nnc(-n3cccc3)s2)C1 (configuration not stated)	?	18µM	–	–	–
Cc1ccc(NC(=O)C2CCCN(c3nnc(-n4c(C)ccc4C)s3)C2)c(C)c1 (configuration not stated)	16µM	?	·	–	–
O=C(NC1CCN(Cc2ccccc2)CC1)C1CCCN(c2nnc(-n3cccc3)s2)C1 (configuration not stated)	?	?	–	–	–
Cc1cc(C)c(NC(=O)Cc2csc(C)n2)c(Cl)c1	?	?	·	–	–
O=S(=O)([O-])CCC[N+]1(CC#Cc2ccccc2)CCCCC1	15µM	16µM	–	–	–
C(#Cc1ccccc1)C[N+]1(CC#Cc2cccc3ccccc23)CCCC1	0.058µM	0.65µM	?	–	?
CS(=O)(=O)N(CC(=O)NCCc1ccccc1)C1CCCCC1	–	–	·	–	–
Cc1c(C)c2c(OCC(=O)Nc3ccc(CCO)cc3)cc3c(c2oc1=O)CCC(C)(C)O3	?	?	–	·	–
Cc1cccc(NC(=O)CNC(=O)COc2ccc(C(=O)c3ccc(F)cc3)cc2)c1C	10µM	18µM	–	–	–
Cc1cccc(NC(=O)CNC(=O)COc2ccc(-c3ccc(C#N)cc3)cc2)c1C	13µM	–	–	–	–
COc1cc(C)c(COc2ncnc3ccccc23)cc1OC	?	?	–	–	–
O=C(c1ccc(Cl)cc1)N1CCC(c2nc3ccccc3o2)CC1	15µM	?	·	–	–
SMILES	DT40 TDP1 no CPT	DT40 TDP1 CPT	uPA generation	TDP1 block	miR-21 reporter
CC(C)(C)c1ccc(C(=O)N2CCC(c3nc4ccccc4o3)CC2)cc1	15µM	21µM	·	–	–
Cc1cc(Cl)ccc1OCC(=O)N1CCC(c2nc3ccccc3o2)CC1	16µM	?	·	–	–
Cc1cccc(OCC(=O)N2CCC(c3nc4ccccc4o3)CC2)c1C	?	?	·	–	–
CCC1CN(S(=O)(=O)c2cc(-c3cc(C)no3)ccc2OC)c2cc(Cl)ccc2O1 (configuration not stated)	?	?	·	–	–
Cc1cc(-c2ccc(C(C)C)c(S(=O)(=O)N3CCOc4ccccc43)c2)on1	18µM	?	–	–	–
Cc1cc(-c2ccc(C(C)C)c(S(=O)(=O)N3CC(=O)Nc4ccccc43)c2)on1	–	–	–	–	–
CCC1CN(S(=O)(=O)c2cc(-c3cc(C)no3)ccc2OC)c2cc(C)ccc2O1 (configuration not stated)	23µM	18µM	–	–	–
COc1ccc(-c2cc(C)no2)cc1S(=O)(=O)N1CCN(c2cccc(C)c2)C(C)C1 (configuration not stated)	23µM	16µM	?	–	–
COc1ccc(-c2cc(C)no2)cc1S(=O)(=O)N1CCOc2ccccc21	18µM	?	–	–	–
CC(C)S(=O)(=O)c1oc(-c2cccs2)nc1S(=O)(=O)c1ccc(F)cc1	0.46µM	0.65µM	·	–	?
CSc1oc(-c2ccc(F)cc2)nc1S(=O)(=O)c1ccccc1	–	–	–	–	–
CC(C)S(=O)(=O)c1oc(-c2ccc(F)cc2)nc1S(=O)(=O)c1ccccc1	0.46µM	0.73µM	·	–	?
O=C(Oc1ccccc1)c1cc(O)c(O)c(O)c1	23µM	21µM	·	·	·
O=C(Nc1cc(Sc2ccccn2)cc([N+](=O)[O-])c1)c1ccc(Cl)cc1	23µM	?	–	–	–
CC(=O)N1CCN(c2cc(-c3ccccc3)nc3cc(-c4cccc(Cl)c4)nn23)CC1	10µM	21µM	·	·	·
O=C(c1ccoc1)N1CCN(c2cc(-c3ccncc3)nc3cc(-c4cccc(Cl)c4)nn23)CC1	5.8µM	13µM	·	·	·
O=C(c1ccncc1)N1CCN(c2cc(-c3ccccc3)nc3cc(-c4cccc(Cl)c4)nn23)CC1	7.3µM	12µM	·	·	·
O=C(c1ccoc1)N1CCC2(CC1)Oc1ccc(Cl)cc1C(=O)C21CC(c2cccnc2)=NO1 (configuration not stated)	–	–	–	–	–
Cc1cc(N2CCN(C(=O)c3ccco3)CC2)n2nc(-c3cccc(F)c3)cc2n1	?	?	·	–	–
O=C(c1cc(-c2ccncc2)nc2ccccc12)N1CCN(c2ncccn2)CC1	?	–	–	–	·
O=C(c1ccoc1)N1CCN(c2cc(-c3cccnc3)nc3cc(-c4cccc(Cl)c4)nn23)CC1	7.3µM	18µM	·	·	·
Cc1ccc(C(=O)ONC(=O)c2ccc(Cl)cc2)cc1[N+](=O)[O-]	?	?	–	·	–
Cc1ccc(C)c(C(O)c2ncc(-c3ccc(F)cc3)[nH]2)c1 (configuration not stated)	15µM	16µM	·	·	·

Source: PubChem (National Center for Advancing Translational Sciences (NCATS))
